Holding throughout (type): cell-based, human
Test [1] deals with p27^Kip1. Kind of test: Immunofluorescence of p27Kip1 cellular localization. Particulars: BT-474; suboptimal trastuzumab, without or with OA; 72 hours. On the procedure:
FIG. 7. Exogenous supplementation with OA synergistically enhances trastuzumab-induced up-regulation and nuclear accumulation of p27^Kip1. […] Equal amounts of total protein (50 mg per lane) were subjected to Western blot analyses with an anti-p27^Kip1 rabbit polyclonal antibody and then re-probed with a β-actin antibody. […] Similar results were obtained in three independent experiments. […] After 72 hours, p27^Kip1 cellular localization was evaluated by immunofluorescence following a 2 hour incubation with an anti-p27^Kip1 rabbit polyclonal antibody diluted 1:200 in 0.05% Triton X-100/PBS. Cellular localization of P27^Kip1 was detected by indirect immunofluorescence by incubating with TRITC-conjugated anti-rabbit IgG secondary antibody. Cells were examined and photographed using a Zeiss fluorescent microscope equipped with a built-in camera. […] Similar results were obtained in three independent experiments.
Cells were seeded at a density of 1×10^4 cells/well in a four-well chamber slide (Nalge Nunc International, Rochester, N.Y.). […] The cells were washed and then incubated for 2 hours with anti-p185^Her-2/neu or anti-p27^Kip1 antibodies, each separately diluted 1:200 in 0.05% Triton X-100/PBS. […] Indirect immunofluorescence was recorded on a Zeiss microscope. […]

In the next test the test system is SK-Br3 and BT-474 cells. Kind of test: Soft-agar colony-formation assay. The conditions noted are these: OA, trastuzumab or co-exposure.
Another test relates to SK-Br3 cells. As to the kind of experiment: TUNEL apoptosis assay, SK-Br3. Particulars: GLA 10 μg/mL, trastuzumab 10 μg/mL, alone or together, 48 hours. On the procedure: FIG. 6. […] After 72 hours, a TUNEL analysis was performed using the DeadEnd® Fluorometric TUNEL System (Promega Inc.) according to the manufacturer's protocol. The immunofluorescence photomicrographs of cells undergoing apoptosis (green staining) and the corresponding DAPI-counterstained photomicrographs are shown. […] Equal amounts of total protein (50 μg per lane) were subjected to Western blot analyses with a specific antibody against the p85 fragment of PARP, and then re-probed with a β-actin antibody. […] Similar results were obtained in three independent experiments. […] A) Cell surface expression of Her-2/neu protein in BT-474 and SK-Br3 cells was determined by flow cytometry using a mouse anti-Her-2/neu antibody directed against the extracellular domain of the p185^Her-2/neu oncoprotein (clone Ab-5; Oncogene Research Products; San Diego, Calif.). […] The mean fluorescence signal associated with cells for labeled p185^Her-2/neu was quantified using the Geo Mean (GM) fluorescence parameter provided with the software. […] Immunoreactive bands were detected by enhanced chemiluminescence reagent (Pierce, Rockford, Ill.). […] Densitometric values of protein bands were quantified using Scion Imaging Software (Scion Corp., Frederick, Md.). […]

The subject of test [2] is p27^Kip1. Kind of test: Western blot of p27Kip1 expression. Particulars: BT-474; 72 hours; OA, trastuzumab or combination. On the procedure: FIG. 7. Exogenous supplementation with OA synergistically enhances trastuzumab-induced up-regulation and nuclear accumulation of p27^Kip1. […] Equal amounts of total protein (50 mg per lane) were subjected to Western blot analyses with an anti-p27^Kip1 rabbit polyclonal antibody and then re-probed with a β-actin antibody. […] Similar results were obtained in three independent experiments. […] After 72 hours, p27^Kip1 cellular localization was evaluated by immunofluorescence following a 2 hour incubation with an anti-p27^Kip1 rabbit polyclonal antibody diluted 1:200 in 0.05% Triton X-100/PBS. Cellular localization of P27^Kip1 was detected by indirect immunofluorescence by incubating with TRITC-conjugated anti-rabbit IgG secondary antibody. […]
The lysates were cleared by centrifugation in an Eppendorf tube (15 minutes at 14,000 r.p.m. at 4° C.). Protein content was determined against a standardized control using the Pierce protein assay kit (Rockford, Ill.). […] The membranes were washed in TBS-T, horseradish peroxidase-conjugated secondary antibodies (Jackson Immunoresearch Laboratories) in TBS-T were added for 1 hour, and immunoreactive bands were detected by enhanced chemiluminescence reagent (Pierce). […] Densitometric values of protein bands were quantified using Scion Imaging Software (Scion Corp., Frederick, Md.).
For orientation: Immunoblotting shows a protein as a band on a membrane.

In the case of “trastuzumab: humanized monoclonal IgG1, binding with high affinity to the ectodomain of p185^Her-2/neu [reference compound]”, in the test on p27^Kip1 [1], the “translocation of p27^Kip1 from cytosol to cell nuclei” value is given as “significant translocation”. The “anchorage-independent colony formation in soft agar” value in the test with SK-Br3 and BT-474 cells is listed as “significantly blocked”. The “cells that underwent apoptosis (TUNEL)” value with SK-Br3 cells is on record as 11% (95% CI=9% to 13%). For the same substance, the “expression of p27^Kip1” value in the test on p27^Kip1 [2] is “significantly enhanced”.

The values are drawn from patent US20070207975A1, “Materials and methods for treating and preventing Her-2/neu overexpressing, FAS-elevated cancer cells” (EVANSTON NORTHWESTERN HEALTHCARE, priority 2006, published 2007).
